Assay results published in patent US10690666B2, “Methods and compositions for modulating TH-GM cell function” (National University of Singapore, priority 2014, dated 2020).

Key:
Type in all cases: cell-based, mouse
naïve CD4+ T cells [1] = test: In vitro TH-GM (GM-CSF-expressing TH) differentiation from naïve CD4+ T cells; details: anti-CD3 and anti-CD28 plus cytokine or antibody
Procedure: FIGS. 13A and 13B depict the differentiation of GM-CSF-expressing TH cells is distinct from TH17 and TH1. Naïve CD4^+ T cells were primed with plate-bound anti-CD3 and soluble anti-CD28 in the presence of a combination of various cytokines and neutralizing antibodies as indicated. GM-CSF, IL-17 and IFN-γ expression was analyzed by intracellular staining (FIG. 13A) or RT-PCR (FIG. 13B)
FIGS. 14A-14D show the effect of IL-2 and IL-6 on TH-GM differentiation from naïve T cells. GM-CSF and IFN-γ expression in naive CD4^+ T cells activated for 72 h with anti-CD3 alone or plus anti-CD28 (FIG. 14A). […] The frequencies of GM-CSF^+ and IL-17^+ cells were measured by intracellular staining (FIG. 14B). […] The frequencies of GM-CSF^+ and IL-17^+ cells were analyzed. […] The frequencies of GM-CSF^+, IL-17^+ and IFN-γ^+ cells were analyzed.
FIGS. 15A-15F depict IL-7-STAT5 signaling programs TH-GM differentiation from naïve precursor cells. […] GM-CSF and IFN-γ expression was analyzed by intracellular staining (FIG. 15A) or ELISA (FIG. 15B). […] GM-CSF, IL-17 and IFN-γ expression was analyzed by intracellular cytokine staining (FIG. 15C). GM-CSF secretion was measured by ELISA (FIG. 15D). […] The binding of antibodies to Csf2 promoter region was detected by RT-PCR (FIG. 15F). […]

STAT5 = test: Cytokine-induced STAT5 activation in CD4+ T cells, immunoblotting
Procedure: (§1) FIGS. 10A-10C show STAT5-mediated GM-CSF induction is independent of IL-23 or IL-1β signaling. In FIG. 10A, purified CD4^+ T cells were cultured with TGF-β and IL-6 for 3 days, followed by starvation for 6 h. Then cells were treated with various cytokines for 30 min, and pSTAT3 and pSTAT5 was determined by immunoblotting. STAT3 and STAT5 were further detected after stripping. […] The RT-PCR data were normalized to β-Actin. In FIG. 10C, splenocytes were obtained from MOG35-55/CFA-immunized WT mice before disease onset and challenged with MOG35-55 (20 μg/ml) in the absence or presence of IL-2 for 48 h. The frequencies of GM-CSF^+ and IL-17^+ cells among CD4^+CD44^hi T cells were measured by flow cytometry. *p<0.05.
(§2) FIGS. 17A-17E illustrate that IL-7 but not IL-2 induces STAT5 activation and GM-CSF expression in naïve CD4^+ T cells. FIGS. 17A-17C show flow cytometry of CD25 and CD127 on the surface of naïve CD4^+ T cells or cells activated with anti-CD3 and anti-CD28 at various time points as indicated. Activation of STAT5 in naïve CD4^+ T cells stimulated with IL-2 or IL-7 for 30 min (FIG. 17D). […] The RT-PCR data were normalized to β-Actin, and expression in naïve T cells activated for 2 h without cytokine was set to 1.
As shown in FIGS. 18A and 18B, CD4^+ T cells were activated with anti-CD3 and anti-CD28 for 3 days. After resting in fresh medium, cells were stimulated with IL-2 or IL-7 at various time points. The pTyr-STAT5 and β-Actin were detected by immunoblotting (FIG. 18A). GM-CSF mRNA expression was measured by RT-PCR (FIG. 18B). The RT-PCR data were normalized to β-Actin, and expression in cells without cytokine stimulation was set to 1. The ChIP assay shown in FIG. 18C was performed with normal IgG or STAT5-specific antibody. The binding of antibodies to Csf2 promoter region was detected by RT-PCR.
Next, the mechanism by which STAT5 regulates GM-CSF expression was investigated. […] Furthermore, IL-1R1 expression was not changed, whereas IL-23Rα expression was increased in Stat5^−/− CD4^+ T cells (FIG. 10B). […] Therefore, the effect of these two cytokines on GM-CSF induction in autoreactive T cells was further examined. Splenocytes derived from MOG35-55-immunized wild-type mice were challenged with MOG35-55 alone or plus IL-2. GM-CSF and IL-17 production by CD4^+ T cells were analyzed by intracellular cytokine staining. […] Furthermore, IL-7 carried out this function in a STAT5-dependent manner, as Stat5 deletion abrogated its effect on GM-CSF expression as assessed by intracellular cytokine staining and ELISA (FIG. 11A, lower panels, and FIG. 11B).
Next, it was determined whether IL-2 signaling could influence TH-GM differentiation from naïve CD4^+ T cells. […]

CD4+CD44hi T cells = test: MOG35-55 challenge of splenocytes from immunized mice, GM-CSF expression; details: MOG35-55 (20 μg/ml) plus cytokine, 48 h
Procedure: as §1
Splenocytes were obtained from MOG35-55/CFA-immunized Stat5^+/+ and Stat5^−/− mice before disease onset and challenged with MOG35-55 (20 μg/ml) in the absence or presence of IL-7 for 48 h. Frequencies of GM-CSF^+ and IL-17^+ cells among CD4^+CD44^hi T cells were measured by flow cytometry (FIG. 11A). GM-CSF secretion was measured by ELISA (FIG. 11B). Data represent two independent experiments with two to three mice per group. […]
Next, the mechanism by which STAT5 regulates GM-CSF expression was investigated. […] GM-CSF and IL-17 production by CD4^+ T cells were analyzed by intracellular cytokine staining. […]

naïve CD4+ T cells [2] = test: GM-CSF mRNA expression in naïve CD4+ T cells stimulated with IL-2 or IL-7, RT-PCR; details: anti-CD3 and anti-CD28 plus cytokine
Procedure: as §2
Total RNA was extracted from cells with RNeasy kit (Qiagen) according to the manufacturer's instruction. Complementary DNA (cDNA) was synthesized with Superscript reverse transcriptase (Invitrogen). Gene expressions were measured by 7500 real-time PCR system (Applied Biosystems) with SYBR qPCR kit (KAPA). Actinb, Gapdh or Rn18S was used as internal control. The primer sequences are available upon request.
Next, it was determined whether IL-2 signaling could influence TH-GM differentiation from naïve CD4^+ T cells. The addition of IL-2 or antibody against IL-2 only had modest effect on the frequency of GM-CSF^+ cells (FIG. 14D), indicating a minimal effect of IL-2 on TH-GM differentiation. […] Thus, the minimal effect of IL-2 at least in part is due to the unresponsiveness of naïve CD4^+ T cells to IL-2 stimulation.

Substance: IL-2: cytokine (R&D Systems)
- GM-CSF-expressing cell differentiation from naïve CD4+ T cells (naïve CD4+ T cells [1]): modest effect
- STAT5 activation, Csf2 promoter binding and GM-CSF mRNA in activated CD4+ T cells (STAT5; CD4+ T cells activated 3 days, rested, then cytokine): induced STAT5 activation, Csf2 promoter binding and GM-CSF mRNA upregulation
- STAT5 activation (tyrosine phosphorylation) (STAT5; CD4+ T cells cultured with TGF-β and IL-6 3 days, starved 6 h, cytokine 30 min): potently activated STAT5
- duration of STAT5 activation in activated CD4+ T cells (STAT5; compared with IL-7): prolonged STAT5 activation
- STAT5 activation in naïve CD4+ T cells (STAT5; naïve CD4+ T cells, cytokine 30 min): but not IL-2
- frequency of GM-CSF+ T cells / GM-CSF expression in CD4+CD44hi T cells (CD4+CD44hi T cells): modest effects
- GM-CSF mRNA expression in naïve CD4+ T cells (naïve CD4+ T cells [2]): but not IL-2
